Measured values: PMC4493534 (Theranostics, 2015)

Test system: TSPO
Test: In vitro autoradiography of postmortem human brain
Assay type: binding
Conditions: postmortem human brain sections, 0.5 nM radioligand

With CC[C@@H](C)N([11CH3])C(=O)c1cc2ccccc2c(-c2ccccc2Cl)n1 [(R)[^11C]PK11195] the “in vitro binding in LAB-1 compared with HAB-1” value was “a little higher in LAB-1 than in HAB-1”.
